Reference: PubChem BioAssay AID588407 (The Scripps Research Institute Molecular Screening Center, 2011)
Activity calls are given as the source filed them. The rule behind the calls is not given here.

Chains of the proteins cited; added tags and fusions are not shown.
UniProt P35372, whole entry, looked up: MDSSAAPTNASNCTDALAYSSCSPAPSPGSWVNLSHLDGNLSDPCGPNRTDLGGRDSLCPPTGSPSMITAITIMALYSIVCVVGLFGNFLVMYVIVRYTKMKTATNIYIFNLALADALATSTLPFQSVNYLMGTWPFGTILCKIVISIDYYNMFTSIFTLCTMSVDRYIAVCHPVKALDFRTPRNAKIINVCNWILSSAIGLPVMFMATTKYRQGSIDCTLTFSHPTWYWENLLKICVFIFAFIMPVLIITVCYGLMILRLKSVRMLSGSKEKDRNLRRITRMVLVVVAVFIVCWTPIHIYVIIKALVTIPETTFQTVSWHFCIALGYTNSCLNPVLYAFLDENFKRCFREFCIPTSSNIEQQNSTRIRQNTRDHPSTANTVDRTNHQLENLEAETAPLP
UniProt P41143, whole entry, looked up: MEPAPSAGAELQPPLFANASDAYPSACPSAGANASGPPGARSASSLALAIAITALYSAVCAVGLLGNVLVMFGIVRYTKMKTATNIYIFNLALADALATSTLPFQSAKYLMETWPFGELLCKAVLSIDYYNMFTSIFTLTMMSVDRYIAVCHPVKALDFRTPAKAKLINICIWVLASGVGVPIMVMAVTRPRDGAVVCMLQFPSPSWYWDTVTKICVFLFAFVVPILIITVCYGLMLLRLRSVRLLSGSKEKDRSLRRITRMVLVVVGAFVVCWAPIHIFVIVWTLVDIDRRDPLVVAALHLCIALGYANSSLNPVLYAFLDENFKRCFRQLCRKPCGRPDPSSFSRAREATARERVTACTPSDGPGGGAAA

Target: Mu-type opioid receptor (Homo sapiens) + Delta-type opioid receptor (Homo sapiens) (UniProt P35372+P41143)
Assay: OPRM1-OPRD1 heterodimer agonist potency – cell-based, luminescence, dose response (AID 588407);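 note: potency of agonists raising the heterodimer signal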
Details: cells, MOR-DOR heterodimerization

**Q.** Which EC50 does the source give for `CCn1c(N)[n+](CC(=O)Nc2ccc(SC(F)F)cc2)c2ccccc21` here?
**A.** Its EC50 is 7.09 µM.

**Q.** Which EC50 does the source give for `CCN(CC)c1ccc(CNc2nc3ccccc3n2CCN2CCCCC2)cc1` here?
**A.** Its EC50 is “inactive”.

**Q.** How did the EC50 turn out when `Cc1ccc(C)c(CN2CCC(n3nnc4cc(F)ccc43)CC2)c1` was run?
**A.** Its EC50 is “inactive”.
